This is an account of results in EP0490549B1, “Stabilisation of pharmaceutical compositions comprising calcitonin” (CIBA-GEIGY AG, priority 1990, dated 1995).

The nature of the data set: Stability of aqueous hCT solutions against fibrillation or precipitation (solution remains clear on storage). The settings on record: 0.001% acetic acid, compared overall with other acids and concentrations.

As to `CC(=O)O` [acetic acid], the stabilising conditions result is “best case”.
